Experimental data reported in PubChem BioAssay (NCI).
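Step 1: Grow cells in 96-well plates. Step 2: Expose to compound for 48 hours at 5 concentrations. Step 3: Interpolate endpoints linearly; if unreached, use highest concentration. GI50 = concentration required for 50% inhibition of growth. TGI: total growth inhibition.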

Tests used:
Experiment in all cases: NCI-60 cell line screen, 48 h; in the data active = GI50 below about 0.43 µM; inactive = the rest
786-0 renal = tested on: 786-0 renal
A549 NSCLC = tested on: A549 NSCLC
ACHN renal = tested on: ACHN renal
BT-549 breast = tested on: BT-549 breast
CAKI-1 renal = tested on: CAKI-1 renal
CCRF-CEM leukemia = tested on: CCRF-CEM leukemia
COLO 205 colon = tested on: COLO 205 colon
DU-145 prostate = tested on: DU-145 prostate
EKVX NSCLC = tested on: EKVX NSCLC
HCC-2998 colon = tested on: HCC-2998 colon
HCT-116 colon = tested on: HCT-116 colon
HCT-15 colon = tested on: HCT-15 colon
HL-60(TB) leukemia = tested on: HL-60(TB) leukemia
HOP-62 NSCLC = tested on: HOP-62 NSCLC
HS 578T breast = tested on: HS 578T breast
HT29 colon = tested on: HT29 colon
IGROV1 ovarian = tested on: IGROV1 ovarian
K-562 leukemia = tested on: K-562 leukemia
KM12 colon = tested on: KM12 colon
LOX IMVI melanoma = tested on: LOX IMVI melanoma
M14 melanoma = tested on: M14 melanoma
MALME-3M melanoma = tested on: MALME-3M melanoma
MCF7 breast = tested on: MCF7 breast
MDA-MB-231 breast = tested on: MDA-MB-231 breast
MDA-MB-435 = tested on: MDA-MB-435
MDA-N = tested on: MDA-N
MOLT-4 leukemia = tested on: MOLT-4 leukemia
NCI-H226 lung = tested on: NCI-H226 lung
NCI-H23 lung = tested on: NCI-H23 lung
NCI-H322M lung = tested on: NCI-H322M lung
NCI-H460 lung = tested on: NCI-H460 lung
NCI-H522 lung = tested on: NCI-H522 lung
NCI/ADR-RES ovarian = tested on: NCI/ADR-RES ovarian
OVCAR-3 ovarian = tested on: OVCAR-3 ovarian
OVCAR-4 ovarian = tested on: OVCAR-4 ovarian
OVCAR-5 ovarian = tested on: OVCAR-5 ovarian
OVCAR-8 ovarian = tested on: OVCAR-8 ovarian
PC-3 prostate = tested on: PC-3 prostate
RXF 393 renal = tested on: RXF 393 renal
SF-268 CNS = tested on: SF-268 CNS
SF-295 CNS = tested on: SF-295 CNS
SF-539 CNS = tested on: SF-539 CNS
SK-MEL-2 melanoma = tested on: SK-MEL-2 melanoma
SK-MEL-28 melanoma = tested on: SK-MEL-28 melanoma
SK-MEL-5 melanoma = tested on: SK-MEL-5 melanoma
SK-OV-3 ovarian = tested on: SK-OV-3 ovarian
SN12C renal = tested on: SN12C renal
SNB-19 CNS = tested on: SNB-19 CNS
SNB-75 CNS = tested on: SNB-75 CNS
SR leukemia = tested on: SR leukemia
SW-620 colon = tested on: SW-620 colon
T-47D breast = tested on: T-47D breast
TK-10 renal = tested on: TK-10 renal
U251 CNS = tested on: U251 CNS
UACC-257 melanoma = tested on: UACC-257 melanoma
UACC-62 melanoma = tested on: UACC-62 melanoma
UO-31 renal = tested on: UO-31 renal

CC(C)(C)CN1[C@@H]2CCCC[C@H]2N(CC(C)(C)C)P1(C)=O
32 µM: TGI (COLO 205 colon)
inactive: GI50 (786-0 renal) 38.1 µM | GI50 (A549 NSCLC) 32.1 µM | GI50 (ACHN renal) 32.2 µM | GI50 (BT-549 breast) 32.7 µM | GI50 (CAKI-1 renal) 50.9 µM | GI50 (CCRF-CEM leukemia) 36.4 µM | GI50 (COLO 205 colon) 17.4 µM | GI50 (DU-145 prostate) 32.2 µM | GI50 (EKVX NSCLC) 29.3 µM | GI50 (HCC-2998 colon) 20 µM | GI50 (HCT-116 colon) 25.7 µM | GI50 (HCT-15 colon) 26.3 µM | GI50 (HL-60(TB) leukemia) 20.5 µM | GI50 (HOP-62 NSCLC) 38.5 µM | GI50 (HS 578T breast) 22.4 µM | GI50 (HT29 colon) 25.1 µM | GI50 (IGROV1 ovarian) 17.2 µM | GI50 (K-562 leukemia) 43.7 µM | GI50 (KM12 colon) 44.1 µM | GI50 (LOX IMVI melanoma) 48.1 µM | GI50 (M14 melanoma) 29.2 µM | GI50 (MALME-3M melanoma) 26.6 µM | GI50 (MCF7 breast) 31.6 µM | GI50 (MDA-MB-231 breast) 25.5 µM | GI50 (MDA-MB-435) 20.1 µM | GI50 (MDA-N) 19.6 µM | GI50 (MOLT-4 leukemia) 33.5 µM | GI50 (NCI-H226 lung) 25.2 µM | GI50 (NCI-H23 lung) 29.2 µM | GI50 (NCI-H322M lung) 50.2 µM | GI50 (NCI-H460 lung) 33.6 µM | GI50 (NCI-H522 lung) 16.8 µM | GI50 (NCI/ADR-RES ovarian) 32.6 µM | GI50 (OVCAR-3 ovarian) 22.3 µM | GI50 (OVCAR-4 ovarian) 29.9 µM | GI50 (OVCAR-5 ovarian) 32.6 µM | GI50 (OVCAR-8 ovarian) 33.7 µM | GI50 (PC-3 prostate) 21.2 µM | GI50 (RXF 393 renal) 14.2 µM | GI50 (SF-268 CNS) 32.2 µM | GI50 (SF-295 CNS) 29 µM | GI50 (SF-539 CNS) 25.5 µM | GI50 (SK-MEL-2 melanoma) 19 µM | GI50 (SK-MEL-28 melanoma) > 100 µM | GI50 (SK-MEL-5 melanoma) 22.2 µM | GI50 (SK-OV-3 ovarian) 33.5 µM | GI50 (SN12C renal) 32.9 µM | GI50 (SNB-19 CNS) 49.3 µM | GI50 (SNB-75 CNS) 13.7 µM | GI50 (SR leukemia) 29.6 µM | GI50 (SW-620 colon) 30.4 µM | GI50 (T-47D breast) 15.4 µM | GI50 (TK-10 renal) 24.3 µM | GI50 (U251 CNS) 33.3 µM | GI50 (UACC-257 melanoma) 35.6 µM | GI50 (UACC-62 melanoma) 26.2 µM | GI50 (UO-31 renal) 24.4 µM
64.4 µM: TGI (SR leukemia)
97.1 µM: TGI (MALME-3M melanoma)
67.9 µM: TGI (NCI-H226 lung)
64.5 µM: TGI (SF-539 CNS)
> 100 µM: TGI (786-0 renal) | TGI (A549 NSCLC) | TGI (ACHN renal) | TGI (BT-549 breast) | TGI (CAKI-1 renal) | TGI (CCRF-CEM leukemia) | TGI (DU-145 prostate) | TGI (EKVX NSCLC) | TGI (HCT-116 colon) | TGI (HCT-15 colon) | TGI (HOP-62 NSCLC) | TGI (HT29 colon) | TGI (KM12 colon) | TGI (LOX IMVI melanoma) | TGI (M14 melanoma) | TGI (MCF7 breast) | TGI (NCI-H23 lung) | TGI (NCI-H322M lung) | TGI (NCI-H460 lung) | TGI (NCI/ADR-RES ovarian) | TGI (OVCAR-4 ovarian) | TGI (OVCAR-5 ovarian) | TGI (OVCAR-8 ovarian) | TGI (SF-268 CNS) | TGI (SF-295 CNS) | TGI (SK-MEL-28 melanoma) | TGI (SK-OV-3 ovarian) | TGI (SN12C renal) | TGI (SNB-19 CNS) | TGI (SW-620 colon) | TGI (U251 CNS) | TGI (UACC-257 melanoma) | TGI (UACC-62 melanoma) | TGI (UO-31 renal)
43 µM: TGI (SNB-75 CNS)
80.1 µM: TGI (TK-10 renal)
91.8 µM: TGI (K-562 leukemia)
66.5 µM: TGI (OVCAR-3 ovarian)
58.8 µM: TGI (HS 578T breast)
59.4 µM: TGI (T-47D breast)
52.8 µM: TGI (SK-MEL-5 melanoma)
47 µM: TGI (MDA-N)
46.2 µM: TGI (RXF 393 renal)
39.3 µM: TGI (NCI-H522 lung)
50.3 µM: TGI (MDA-MB-435)
43.6 µM: TGI (SK-MEL-2 melanoma)
78.6 µM: TGI (MOLT-4 leukemia)
54.6 µM: TGI (PC-3 prostate)
86.8 µM: TGI (MDA-MB-231 breast)
47.1 µM: TGI (HCC-2998 colon)
45.5 µM: TGI (HL-60(TB) leukemia)
65.3 µM: TGI (IGROV1 ovarian)
